According to patent US4835155A, “Process for protection of brain cells” (Nippon Chemiphar Co., Ltd., priority 1986, dated 1989):

System: pyramidal cells (neurons) in CA1 area of hippocampus
Experiment: Restraint effect on delayed nerve cell affection (5 min bilateral carotid occlusion, forebrain ischemia; surviving CA1 pyramidal cells after seven days)
Assay type: in vivo, meriones unguiculatus
Conditions: 30 mg/kg intraperitoneally at recovery of blood flow, n = 10, normal group 66.03 ± 7.37, vehicle 7.51 ± 3.26
Description: A male meriones unguiculatus (approx. 12-16 week ages) was anesthetized. Its bilateral common carotide arteries at the neck was exposed, and occluded with clips for 5 minutes to cause ischemia at its forebrains. At the same time when the blood flow was recovered, 1-(3,4-dimethoxyphenyl)-2-(4-diphenylmethylpiperazinyl)ethanol dihydrochloride (hereinafter referred to as "Medicament A") or 0.2% methylcellulose (which was employed as vehicle for the above test compound) was administered intraperitoneally at a dose of 30 mg/kg (n=10) for each.
After seven days, the treated animal was fixed by perfusion fixation which was carried out by introducing approx. 300 ml of 10% aqueous formalin solution into left ventricle at 120 cm·H2 0, and were decapitated. After decapitated portion was left at room temperature for one hour, the brain was taken out and immersed into the same solution for 48 hours. After the brains were dissected out and cut coronally into small blocks, the blocks were dehydrated and then embedded in paraffin according to the conventional manner. […]
The specimen was observed by means of an optical microscope to measure number of well-shaped pyramidal cells (i.e., neurons) contained in CA1 area of the specimen, and was photographed to measure the length of the pyramidal cell layer in the area. Then, number of pyramidal cells per 1 mm was calculated and studied.

COc1ccc(C(O)CN2CCN(C(c3ccccc3)c3ccccc3)CC2)cc1OC (stereo not shown) [Medicament A, 1-(3,4-dimethoxyphenyl)-2-(4-diphenylmethylpiperazinyl)ethanol dihydrochloride]
Number of CA1 neurons: 47.16 ± 4.31 /mm

Structures can show the parent of a compound that is named as a salt.
